The target of test [1] is 5-hydroxytryptamine receptor 1D (Homo sapiens, UniProt P28221).
Test [2] deals with 5-hydroxytryptamine receptor 1B (Homo sapiens, UniProt P28222).
Test [3] addresses T1, Alpha-1A adrenergic receptor (Rattus norvegicus, UniProt P43140).
T1 sequence (P43140 whole entry): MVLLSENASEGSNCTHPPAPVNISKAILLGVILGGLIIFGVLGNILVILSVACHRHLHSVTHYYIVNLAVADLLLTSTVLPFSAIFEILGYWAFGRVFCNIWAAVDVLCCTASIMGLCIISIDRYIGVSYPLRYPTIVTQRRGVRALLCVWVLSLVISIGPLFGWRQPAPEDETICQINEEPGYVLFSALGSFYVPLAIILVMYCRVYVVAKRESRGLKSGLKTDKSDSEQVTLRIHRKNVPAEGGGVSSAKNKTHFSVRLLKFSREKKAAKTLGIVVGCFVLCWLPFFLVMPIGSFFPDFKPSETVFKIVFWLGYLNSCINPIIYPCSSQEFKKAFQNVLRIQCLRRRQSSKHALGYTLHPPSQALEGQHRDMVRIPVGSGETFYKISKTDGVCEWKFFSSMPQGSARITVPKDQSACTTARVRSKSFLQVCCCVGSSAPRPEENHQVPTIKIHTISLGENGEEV

By UniProt entry, the sequences of proteins in these tests, tags left out. Where a name states a change or a piece, a line headed by the entry shows the natural chain unless it says otherwise.
UniProt P28221: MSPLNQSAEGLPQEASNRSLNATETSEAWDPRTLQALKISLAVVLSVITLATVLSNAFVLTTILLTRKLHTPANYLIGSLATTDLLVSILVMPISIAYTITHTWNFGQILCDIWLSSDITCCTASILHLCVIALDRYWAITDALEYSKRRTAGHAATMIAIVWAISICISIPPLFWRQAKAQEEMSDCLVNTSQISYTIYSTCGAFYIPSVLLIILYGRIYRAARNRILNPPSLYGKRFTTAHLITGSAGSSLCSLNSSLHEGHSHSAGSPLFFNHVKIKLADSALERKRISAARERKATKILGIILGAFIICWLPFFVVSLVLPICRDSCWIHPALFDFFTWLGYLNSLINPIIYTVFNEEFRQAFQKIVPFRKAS
UniProt P28222, whole entry: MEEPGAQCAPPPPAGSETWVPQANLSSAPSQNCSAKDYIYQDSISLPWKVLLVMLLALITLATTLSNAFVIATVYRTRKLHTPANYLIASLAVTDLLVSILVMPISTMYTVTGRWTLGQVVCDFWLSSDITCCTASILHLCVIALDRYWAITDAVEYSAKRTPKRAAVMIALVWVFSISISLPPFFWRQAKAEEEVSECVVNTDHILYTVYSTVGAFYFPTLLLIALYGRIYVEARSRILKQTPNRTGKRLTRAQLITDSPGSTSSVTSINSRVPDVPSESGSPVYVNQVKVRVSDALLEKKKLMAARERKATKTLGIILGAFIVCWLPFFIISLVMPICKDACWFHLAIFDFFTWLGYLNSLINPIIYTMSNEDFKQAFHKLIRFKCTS

For orientation: pKi means the Ki on a negative log10 scale, so that one unit is a factor of ten.

pKi: −log10 of the molar value.

Turning to `Fc1cccc2c1OC1CNCC1O2` (stereo not drawn) [CAS_105182-45-4], the pKi in test [1] and in test [2] was 6.00 in each case. As for `COC(=O)[C@@H]1[C@H]2C[C@H]3c4[nH]c5ccccc5c4CCN3C[C@@H]2CC[C@@H]1O` [yohimbic acid methyl ester], in test [3], the negative-log Ki (pKi) is 6.60.

These data come from BindingDB's records for doi:10.1002/(SICI)1098-2396(200002)35:2<79::AID-SYN1>3.0.CO;2-X (Institut De Recherches Servier, 2000).
